Protein sequences, listed by entry. Tags and fused reporters are not part of them.
Tumor susceptibility gene 101 protein (Homo sapiens), Q99816, UniProt Q99816, whole entry, looked up: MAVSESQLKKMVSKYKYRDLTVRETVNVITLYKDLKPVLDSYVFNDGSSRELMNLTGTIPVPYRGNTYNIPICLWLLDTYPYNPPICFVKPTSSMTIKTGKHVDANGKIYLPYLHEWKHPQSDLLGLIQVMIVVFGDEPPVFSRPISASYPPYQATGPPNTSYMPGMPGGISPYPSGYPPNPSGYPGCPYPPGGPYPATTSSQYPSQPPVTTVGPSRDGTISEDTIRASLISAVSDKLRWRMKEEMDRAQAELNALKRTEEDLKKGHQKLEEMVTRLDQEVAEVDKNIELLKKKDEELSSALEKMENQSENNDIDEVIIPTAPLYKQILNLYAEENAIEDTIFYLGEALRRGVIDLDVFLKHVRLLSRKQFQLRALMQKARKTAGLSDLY
Tyrosyl-DNA phosphodiesterase 1 (Homo sapiens), Q9NUW8, UniProt Q9NUW8, whole entry, looked up: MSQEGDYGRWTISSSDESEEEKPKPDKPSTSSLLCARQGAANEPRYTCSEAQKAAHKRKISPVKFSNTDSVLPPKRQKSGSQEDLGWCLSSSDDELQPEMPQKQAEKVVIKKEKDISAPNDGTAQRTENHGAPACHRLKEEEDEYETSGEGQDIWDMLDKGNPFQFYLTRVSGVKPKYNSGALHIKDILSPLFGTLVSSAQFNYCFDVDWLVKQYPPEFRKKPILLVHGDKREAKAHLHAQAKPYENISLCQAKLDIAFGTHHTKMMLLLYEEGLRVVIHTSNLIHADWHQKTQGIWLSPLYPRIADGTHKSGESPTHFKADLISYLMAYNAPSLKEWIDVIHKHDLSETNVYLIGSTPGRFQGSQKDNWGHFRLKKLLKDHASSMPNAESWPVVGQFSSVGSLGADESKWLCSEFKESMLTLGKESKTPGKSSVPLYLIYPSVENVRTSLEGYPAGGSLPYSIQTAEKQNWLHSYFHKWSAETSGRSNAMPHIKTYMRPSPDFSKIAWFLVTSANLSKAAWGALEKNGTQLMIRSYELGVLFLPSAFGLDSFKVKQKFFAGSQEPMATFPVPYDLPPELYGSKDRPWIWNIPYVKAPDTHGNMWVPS
Importin subunit beta-1 (Homo sapiens), Q14974, UniProt Q14974, whole entry, looked up: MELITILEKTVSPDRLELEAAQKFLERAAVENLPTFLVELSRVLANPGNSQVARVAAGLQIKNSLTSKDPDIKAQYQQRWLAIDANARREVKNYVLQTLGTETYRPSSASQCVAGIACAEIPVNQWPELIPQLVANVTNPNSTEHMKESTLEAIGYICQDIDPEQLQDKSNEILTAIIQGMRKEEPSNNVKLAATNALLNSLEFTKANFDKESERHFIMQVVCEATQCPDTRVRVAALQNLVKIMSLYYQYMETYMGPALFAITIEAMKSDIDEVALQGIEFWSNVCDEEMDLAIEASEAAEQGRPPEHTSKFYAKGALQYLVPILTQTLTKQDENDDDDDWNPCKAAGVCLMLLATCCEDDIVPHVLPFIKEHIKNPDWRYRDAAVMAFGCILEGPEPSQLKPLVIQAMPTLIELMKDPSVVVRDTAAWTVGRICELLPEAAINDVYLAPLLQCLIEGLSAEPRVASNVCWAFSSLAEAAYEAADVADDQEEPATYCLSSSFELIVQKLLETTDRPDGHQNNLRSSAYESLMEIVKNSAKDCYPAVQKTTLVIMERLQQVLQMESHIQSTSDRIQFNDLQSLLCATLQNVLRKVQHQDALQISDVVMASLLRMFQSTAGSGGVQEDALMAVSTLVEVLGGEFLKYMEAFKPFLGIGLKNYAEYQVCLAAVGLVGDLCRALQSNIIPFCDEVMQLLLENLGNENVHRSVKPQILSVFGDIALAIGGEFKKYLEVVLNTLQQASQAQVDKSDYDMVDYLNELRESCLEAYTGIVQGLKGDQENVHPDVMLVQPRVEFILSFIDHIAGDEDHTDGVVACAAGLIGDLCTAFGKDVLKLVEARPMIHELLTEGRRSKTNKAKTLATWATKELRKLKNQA

# From PubChem
# TSG101-PTAP inh = qHTS Assay for Iinhibitors of HIV-1 Budding by Blocking the Interaction of PTAP/TSG101 | Tumor susceptibility gene 101 protein (Homo sapiens), Q99816 | Fluorescence polarization, FITC-PTAP peptide / Tsg101 binding | Potency, µM (top dose mostly 115 µM), actives largely listed as inhibitors | 340,000 tested, under 10 active | AID 493005, 2010; active = well fitted inhibition curve with a large enough effect in the main read-out, with a control signal flat, not every such curve was filed as active; inconclusive = small, poorly fitted or top-dose-only effect, or effect the other way, or a change in a side signal; inactive = no such curve, though single readings can be large or run the other way
#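 Compounds were pin-transferred onto Tsg101 binding domain (10 uM final) in HEPES pH 7.5 buffer, then FITC-PTAP peptide was added at 50 nM final. After 20 min at RT, polarization reported peptide displacement across a qHTS concentration series.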
# TDP1 inh = qHTS Assay for Inhibitors of Tyrosyl-DNA Phosphodiesterase (TDP1); recombinant TDP1, AlphaScreen DNA substrate cleavage; AID 485290, 2010; Potency, µM (top dose mostly 130 µM), usual class: inhibitors; actives 0.28% (n = 350,000); Tyrosyl-DNA phosphodiesterase 1 (Homo sapiens), Q9NUW8; also: nearly all actives have a fitted effect of over 40% in size
#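 Tdp1 1 nM final; 15 min RT w/ cpd; substrate 15 nM, 5 min; beads 10 ug/ml, 10 min; AlphaScreen read. Neg ctrl: no enzyme.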
# ALOX12 inh = Primary qHTS assay for inhibitors of human arachidonate 12S-lipoxygenase (ALOX12): Round 2; Potency, µM (series often up to 108 µM), actives largely listed as inhibitors; AID 1671190, 2021; actives 1.1% (n = 580,000); purified 12hLO, xylenol orange hydroperoxide absorbance
#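 Purified human 12hLO at 150 nM in 25 mM Hepes, 0.01% Triton X-100, pH 7.0, preincubated 15 min at room temperature with compound. Reaction started with 40 uM arachidonic acid, 30 min at room temperature. Hydroperoxide measured by Fe-xylenol orange, 573/405 nm absorbance ratio.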
# Rango dissoc inh = qHTS Assay for Inhibitors of RanGTP induced Rango (Ran-regulated importin-beta cargo) - Importin beta complex dissociation; Potency, µM (titrated, usually from 46.1 µM); AID 540253, 2011; actives 0.071% (n = 340,000); Biochemical FRET Rango-importin beta, RanGTP-induced dissociation; Snurportin-1 (Homo sapiens) + GTP-binding nuclear protein Ran (Homo sapiens) + Importin …; calls by dose curve; also: nearly all actives have a fitted effect of over 45% in size
#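 Recombinant Rango FRET biosensor (EYFP–snurportin 1 IBB–cerulean CFP10) at 0.1 uM premixed with 0.25 uM importin beta in PBS, 1 mM DTT, 0.02% Tween-20, 0.1% BSA. Compound added 5 min; RanGTP-RCC1 (0.6 uM Ran, 2 mM GTP, 0.2 uM RCC1) then triggers release, read at 45 min.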
# Rango-impB inh = qHTS Assay for Inhibitors of Rango (Ran-regulated importin-beta cargo) - Importin beta complex formation | Importin subunit beta-1 (Homo sapiens), Q14974 | Rango CFP/YFP FRET sensor + importin beta, 45 min | Potency, µM (top dose mostly 92.2 µM) | actives 0.031% (n = 340,000) | AID 540263, 2011; calls by dose curve; also: nearly all actives have a fitted effect of over 15% in size
#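 FRET biosensor (snurportin 1 IBB flanked by EYFP and cerulean), 50 nM, with compound 5 min, then 0.125 microM importin beta in PBS, 1 mM DTT, 0.02% Tween-20, 0.1% BSA. CFP/YFP ratio read after 45 min at room temperature; pre-read flags interference.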
# ClpP mod = qHTS Assay for Activators of ClpP. purified B. subtilis ClpP, FRET peptide cleavage, 20 min. Potency, µM (series often up to 57.5 µM). AID 651965, 2013. ATP-dependent Clp protease proteolytic subunit (Bacillus subtilis (strain 168)), P80244. actives 1.9% (n = 340,000); active = well fitted falling curve with a large enough effect; inconclusive = small, poorly fitted or top-dose-only effect; inactive = no such curve, though single readings can be large or run the other way; also: the source files actives as falling curves though it sought activators and does not explain the sign; nearly all actives have a fitted effect of over 65% in size
#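 ClpP 10 microg/mL final, pH 8 Tris/KCl buffer with BSA, glycerol, Tween-20; compound pinned in; FRET-FV substrate; RT 20 min; Ex320/Em430; ΔFRET vs ADEP 5.8 microM, DMSO, no enzyme.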
# Hits are given with their value; i = inactive; ? = inconclusive; nt = no result given; [ ] = dose if it differs, or a comment. This is a sample that favours compounds with a hit; in the whole collection about 2.4% have one here. Unless noted, calls follow the shape of the dose curve; as a rule, active = well fitted curve in the direction sought with a large enough effect; inconclusive = small, poorly fitted or top-dose-only effect, or another doubt; inactive = no such curve, though single readings can be large; an effect the other way counts as inactive or inconclusive.
SMILES,TSG101-PTAP inh,TDP1 inh,ALOX12 inh,Rango dissoc inh,Rango-impB inh,ClpP mod
CCOc1cccc(-c2noc(-c3nnn4c3COC(c3ccc(C)cc3C)C4)n2)c1 (stereo unspecified),nt,nt,i,nt,nt,nt
S=C(NCCCc1ccccc1)NC1CCCCC1,i,i,45µM,i,i,i
CC1CCC(NC(=O)c2cncc(Br)c2)CC1 (stereo unspecified),nt,nt,i,nt,nt,nt
Cc1ccccc1C(=O)NC1CCCCCCC1,i,i,i,i,i,i
O=C(NCCO)c1ccccc1O,i,i,i,i,i,32µM
O=C(NC1CCCCCCC1)c1ccccc1O,i,i,i,i,i,28µM
O=C(NC(=S)NC1CCCCCC1)c1cncc(Br)c1,i,i,32µM,i,i,i
COc1ccc(CC(=O)N2CCC3(CC2)C(=O)NCN3C(=O)C2CCCC2)cc1,nt,nt,i[6.33 µM],nt,nt,nt
O=C(NC1CCCCC1)c1cc(Cl)ccc1[N+](=O)[O-],i,i,i,i,i,28µM
C/C(=N\NC(=S)NC1CCCCC1)c1ccc(O)cc1,i,i,?,i,i,nt
O=C(NC(=S)NC1CCCc2ccccc21)c1ccc(F)cc1 (stereo unspecified),i,i,18µM,i,i,i
C/C(=N\NC(=S)NC1CCCCC1)c1ccccc1,i,i,25µM,i,i,i
c1coc(CNc2nc(N3CCCCC3)nc3ccccc23)c1,i,i,i,i,i,22µM
CCOCc1nc(C2CCCN(C(=O)c3ccc(C)cc3)C2)no1 (stereo unspecified),nt,nt,i,nt,nt,nt
O=C(Nc1cccnc1Cl)c1cc(-c2ccc(O)cc2)on1,i,50µM,i,i,i,nt
O=C(Nc1cccnc1Cl)c1cc(-c2ccc(Cl)cc2)on1,i,i,i,i,i,i
C#CCOCCOCCOCCNc1nc(N2CCN(C(=O)Cn3cc(CCCN=C(N)N)nn3)CC2)nc(N2CCN(C(=O)[C@H](C)n3cc(CCCN=C(N)N)nn3)CC2)n1,i,i,?,i,i,i
C#CCOCCOCCOCCNc1nc(N2CCN(C(=O)C([C@@H](C)O)n3cc([C@@H](N)CCCCN)nn3)CC2)nc(N2CCN(C(=O)[C@H](CCCN=C(N)N)n3cc(C(N)[C@@H](C)CC)nn3)CC2)n1 (stereo partly specified),i,i,nt,i,52µM,i
C#CCOCCOCCOCCNc1nc(N2CCN(C(=O)Cn3cc(CCCCN)nn3)CC2)nc(N2CCN(C(=O)Cn3cc(CCCN=C(N)N)nn3)CC2)n1,i,i,2.5µM,i,i,i
O=C(CSc1nc2nc[nH]c2c(=O)[nH]1)Nc1ccc(F)cc1F,nt,nt,i,nt,nt,nt
Cc1cc(NC(=O)c2cc([N+](=O)[O-])ccc2Cl)no1,i,nt,i,i,i,i
O=C(Nc1cccc(NC(=O)c2cc([N+](=O)[O-])ccc2Cl)n1)c1cc([N+](=O)[O-])ccc1Cl,i,nt,nt,i,21µM,i
CCOC(=O)CSc1nc2sc3c(c2c(=O)n1-c1ccccc1)CCN(C(C)C)C3,i,nt,i,18µM,?,nt
CCOC(=O)CSc1nc2sc3c(c2c(=O)n1-c1ccccc1)CCN(C)C3,i,nt,?,?,?,i
O=C(CSc1nc2sc3c(c2c(=O)n1-c1ccccc1)CCCC3)N/N=C/c1ccccc1C(=O)O,i,22µM,nt,i,i,i
SMILES,TSG101-PTAP inh,TDP1 inh,ALOX12 inh,Rango dissoc inh,Rango-impB inh,ClpP mod
O=C(COc1ncnc2ccc(Br)cc12)Nc1ccccc1F,nt,nt,i,nt,nt,nt
COC(=O)c1sc2ccccc2c1-n1cccc1C(=O)C(=O)Nc1ccc(Cl)cc1,i,i,i,i,i,14µM
COC(=O)c1[nH]c2ccc(Cl)cc2c1NC(=O)Oc1ccccc1,i,i,i,i,?,10µM
COC(=O)c1[nH]c2ccc(Cl)cc2c1NC(=O)C(C)N1CCC2(CC1)OCCO2 (stereo unspecified),nt,nt,i,nt,nt,nt
CCOC(=O)C1CCN(CC(=O)Nc2c(C(=O)OC)[nH]c3ccc(Cl)cc23)CC1,i,i,i,i,i,28µM
COC(=O)c1[nH]c2ccc(Cl)cc2c1NC(=O)C1CC1,i,i,i,i,i,32µM
Cc1cc2oc(=O)c(CC(=O)O)c(C)c2c2occ(-c3ccccc3)c12,nt,i,i,nt,nt,32µM
Cc1c(CC(=O)O)c(=O)oc2c(C)c3occ(-c4ccccc4)c3cc12,i,nt,i,i,i,i
O=c1oc2cc(O)ccc2cc1-c1nc2c(s1)CCc1ccccc1-2,?,i,?,?,?,20µM
O=c1oc2ccccc2cc1-c1nc2c(s1)CCc1ccccc1-2,i,i,?,?,?,i
COC(=O)C(Cl)(C(=O)OC)C(OC)(C(=O)OC)C(=O)OC,nt,nt,i,nt,nt,nt
COC(=O)C(Br)(C(=O)OC)C(OC)(C(=O)OC)C(=O)OC,nt,nt,0.71µM,nt,nt,nt
Cc1cc(C)c(O)c(-c2n[nH]c3c2C(c2ccc(F)cc2)N(Cc2cccnc2)C3=O)c1 (stereo unspecified),nt,nt,i,nt,nt,nt
COc1cc2c(-c3ccc(O)cc3)nc3c(c(C)nn3-c3ccccc3)c2cc1OC,i,?,?,i,i,8.9µM
COc1cccc(-c2nc3c(c(C)nn3-c3ccccc3)c3cc(OC)c(OC)cc23)c1,nt,i[12.3 µM],i,nt,nt,i
Cc1ccc(CN2CCCN(S(=O)(=O)c3ccccc3)CCC(=O)NCC2)s1,nt,nt,i,nt,nt,nt
CCC(C)NC(=O)c1cccc(CNC(=O)C2CCCC2)c1 (stereo unspecified),nt,nt,i,nt,nt,nt
Cc1ccc(S(=O)(=O)Nc2ccccc2N=Cc2c(F)c(F)c(F)c(F)c2F)cc1,i,nt,i,i,?,i
Cc1ccc(S(=O)(=O)Nc2ccccc2C=Nc2cccc(C)c2C)cc1,i,i,i,7.3µM,?,i
Cc1ccc(S(=O)(=O)Nc2ccccc2/C=N/c2nc3ccccc3n2C)cc1,i,i,nt,8.2µM[inhibitor],?,i
Fc1ccc(C2=CC(c3ccc(Br)o3)n3ncnc3N2)cc1 (stereo unspecified),?,i,nt,?,?,32µM
C1=C(c2ccc(-c3ccccc3)cc2)Nc2ncnn2C1c1ccco1 (stereo unspecified),?,i,i,?,?,16µM
